One test deals with Mu-type opioid receptor (Homo sapiens, UniProt P35372).
Test [1] concerns the target Kappa-type opioid receptor (Homo sapiens, UniProt P41145).

Chains of the proteins cited; added tags and fusions are not shown. Lines headed by an entry give the natural chain unless they say otherwise; changes in a name come on top.
UniProt P35372, whole entry: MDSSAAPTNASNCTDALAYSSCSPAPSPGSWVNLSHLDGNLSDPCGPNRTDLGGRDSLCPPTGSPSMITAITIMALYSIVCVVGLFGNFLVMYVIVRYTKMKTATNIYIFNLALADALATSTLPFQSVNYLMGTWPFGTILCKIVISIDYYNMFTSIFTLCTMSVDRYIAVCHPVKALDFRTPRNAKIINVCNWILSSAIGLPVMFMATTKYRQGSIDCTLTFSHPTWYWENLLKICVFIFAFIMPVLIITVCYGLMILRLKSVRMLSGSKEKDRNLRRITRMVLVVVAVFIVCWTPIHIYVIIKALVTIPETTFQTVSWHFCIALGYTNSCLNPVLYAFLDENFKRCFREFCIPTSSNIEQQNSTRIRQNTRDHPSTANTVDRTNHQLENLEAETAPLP
UniProt P41145: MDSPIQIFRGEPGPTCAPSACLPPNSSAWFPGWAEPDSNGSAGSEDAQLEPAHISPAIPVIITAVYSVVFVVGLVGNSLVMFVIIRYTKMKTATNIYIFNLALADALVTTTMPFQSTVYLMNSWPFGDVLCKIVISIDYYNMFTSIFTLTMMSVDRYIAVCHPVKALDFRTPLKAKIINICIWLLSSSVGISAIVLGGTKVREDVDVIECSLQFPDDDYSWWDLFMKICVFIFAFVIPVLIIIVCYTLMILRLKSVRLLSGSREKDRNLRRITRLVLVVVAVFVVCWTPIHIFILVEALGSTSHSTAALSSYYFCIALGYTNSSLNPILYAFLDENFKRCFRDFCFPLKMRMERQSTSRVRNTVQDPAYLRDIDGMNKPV

On to `CC(C)C[C@@H](NC(=O)[C@H](Cc1ccccc1)NC(=O)CNC(=O)[C@@H](C)NC(=O)[C@@H](N)Cc1ccc(O)cc1)C(=O)O` [[D-Ala2-D-Leu5]enkephalin], for which the Ki on Mu-type opioid receptor was 16 nM; in test [1], 1000 nM.

In turn, `Oc1ccc2c3c1OC1c4[nH]c5ccccc5c4CC4(O)[C@H](C2)N(CC2CC2)CCC314` (some centres undefined) [NALTRINDOLE] displayed a Ki in test [1] of 66 nM.

At Mu-type opioid receptor, `CC(C)[C@H](NC(=O)[C@H](CCC(=O)O)NC(=O)[C@H](Cc1ccccc1)NC(=O)[C@@H](C)NC(=O)[C@@H](N)Cc1ccc(O)cc1)C(=O)N[C@H](C(=O)NCC(N)=O)C(C)C` [Tyr-D-Ala-Phe-Glu-Val-Val-GlyNH2] came in with a Ki of 1000 nM.

As usually defined, the Ki is the dissociation constant of the complex between target and ligand, obtained from inhibition or displacement. A high value points to weaker binding.

The record behind these values is BindingDB's records for PubMed 8114680 (University of Pennsylvania, 1994).
